## scFv variants of Ab-14 (light chain) against a SARS-CoV-2 spike peptide

The measurements come from Engelhart et al. 2022 (doi:10.1038/s41597-022-01779-4) through the FLAb antibody collection.

The target is the same throughout: PDVDLGDISGINAS, from the HR2 region of SARS-CoV-2 spike.

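The parent was found by panning a naive human phage display library on the peptide. The library (AAYL50) carries one to three amino acid substitutions per variant, with no insertions or deletions. In AlphaSeq, yeast of one mating type display the scFv and yeast of the other type display the target. Pairs that bind mate more often; barcode pairs of the diploids are counted by sequencing. Read counts were normalised to the haploid input and turned into Kd by a linear fit to BCL2-family pairs of known affinity, for each replicate. The assay was run in three technical replicates.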

Parent: Ab-14, a human scFv built as VH, three GGGGS repeats, VL. Only the CDRs of the light chain vary.
VH: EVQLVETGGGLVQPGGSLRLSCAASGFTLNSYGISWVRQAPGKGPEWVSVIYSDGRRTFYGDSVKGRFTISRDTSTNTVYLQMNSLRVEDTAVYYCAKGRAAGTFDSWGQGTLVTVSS
VL: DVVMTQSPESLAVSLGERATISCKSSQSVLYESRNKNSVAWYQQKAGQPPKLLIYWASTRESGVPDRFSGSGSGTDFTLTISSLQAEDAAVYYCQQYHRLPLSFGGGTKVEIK

Changes read parent residue, position, new residue, counted from the first residue of the VL shown. All variants listed here change K36 of the VL, counted from its first residue. The Kd shown is the geometric mean over detected replicates; a lower Kd is a better binder. "nd" marks a missing value. The strain was present, yet no cells mated with the target were sequenced in any replicate, which points to weak or no binding. In this assay the parent's reference entry averaged 4.4 nM; its copy inside this library read 48 nM.

* K36F/A40W/Y97K: nd (0 of 3 replicates)
* S25I/N35R/K36I: 2.5 nM (3 of 3 replicates)
* E32D/K36Y/Y97C: 2.5 nM (3 of 3 replicates)
* S33G/K36E/H98M: 740 nM (2 of 3 replicates)
* K36M/N37S/A40F: nd (0 of 3 replicates)
* S28K/K36I: 27 nM (3 of 3 replicates)
* Q27E/N35C/K36F: 280 nM (3 of 3 replicates)
* Y31T/K36D/A40W: nd (0 of 3 replicates)
* K36S/Q96G/R99C: nd (0 of 3 replicates)
* S25T/K36F/V39N: 51 µM (3 of 3 replicates)
* R34K/N35I/K36R: 8.2 nM (3 of 3 replicates)
* Q27D/K36L/L100D: 4.0 nM (3 of 3 replicates)
* Y31I/K36R/N37A: 14 nM (3 of 3 replicates)
* K36F/S38G/R60G: nd (0 of 3 replicates)
* Y31P/K36V/R60P: nd (0 of 3 replicates)
* K36G/S38V/W56H: 130 nM (3 of 3 replicates)
* S26A/Y31N/K36N: nd (0 of 3 replicates)
* K36P/T59H/R60F: 42 µM (2 of 3 replicates)
* L30P/K36Y/L100C: nd (0 of 3 replicates)
* R34P/K36W/Y97S: 4.7 nM (3 of 3 replicates)
* E32N/K36G: nd (0 of 3 replicates)
* K36M/V39Y/T59R: 4.5 µM (3 of 3 replicates)
* K36T/Q96M/L100T: 2.2 µM (1 of 3 replicates)
* Y31M/K36L/A40L: 170 nM (1 of 3 replicates)
* K36H/W56D/L102T: 20 µM (2 of 3 replicates)
* K36D/S38D/S103D: 360 nM (3 of 3 replicates)
* K36C/W56M/S58R: 17 nM (3 of 3 replicates)
* E32N/K36S/Q95Y: nd (0 of 3 replicates)
* S26K/K36R/L100E: 9.1 µM (1 of 3 replicates)
* Q27H/Y31W/K36I: 16 nM (3 of 3 replicates)
* Y31T/K36E/A57E: 27 nM (3 of 3 replicates)
* K36L/A57W/S62L: nd (0 of 3 replicates)
* L30I/K36M/Q96I: 100 nM (3 of 3 replicates)
* S33D/K36N/Y97V: 15 µM (3 of 3 replicates)

The closing 3 entries, repeated:

* K36L/A57W/S62L: nd (0 of 3 replicates)
* L30I/K36M/Q96I: 100 nM (3 of 3 replicates)
* S33D/K36N/Y97V: 15 µM (3 of 3 replicates)

Nonspecific signal, from three strains lacking the peptide, appeared in 18% of pairings of library AAYL50, centred on 15 µM (5% of these signals below 970 nM); values are not corrected for it.